Target: Ataxia Telangiectasia Mutated (ATM) kinase (Homo sapiens, UniProt Q13315)
Conditions: ATM inhibitor project

The chains behind the UniProt entries cited, without tags or fusion partners.
UniProt Q13315, whole entry, species assumed, stated change not applied: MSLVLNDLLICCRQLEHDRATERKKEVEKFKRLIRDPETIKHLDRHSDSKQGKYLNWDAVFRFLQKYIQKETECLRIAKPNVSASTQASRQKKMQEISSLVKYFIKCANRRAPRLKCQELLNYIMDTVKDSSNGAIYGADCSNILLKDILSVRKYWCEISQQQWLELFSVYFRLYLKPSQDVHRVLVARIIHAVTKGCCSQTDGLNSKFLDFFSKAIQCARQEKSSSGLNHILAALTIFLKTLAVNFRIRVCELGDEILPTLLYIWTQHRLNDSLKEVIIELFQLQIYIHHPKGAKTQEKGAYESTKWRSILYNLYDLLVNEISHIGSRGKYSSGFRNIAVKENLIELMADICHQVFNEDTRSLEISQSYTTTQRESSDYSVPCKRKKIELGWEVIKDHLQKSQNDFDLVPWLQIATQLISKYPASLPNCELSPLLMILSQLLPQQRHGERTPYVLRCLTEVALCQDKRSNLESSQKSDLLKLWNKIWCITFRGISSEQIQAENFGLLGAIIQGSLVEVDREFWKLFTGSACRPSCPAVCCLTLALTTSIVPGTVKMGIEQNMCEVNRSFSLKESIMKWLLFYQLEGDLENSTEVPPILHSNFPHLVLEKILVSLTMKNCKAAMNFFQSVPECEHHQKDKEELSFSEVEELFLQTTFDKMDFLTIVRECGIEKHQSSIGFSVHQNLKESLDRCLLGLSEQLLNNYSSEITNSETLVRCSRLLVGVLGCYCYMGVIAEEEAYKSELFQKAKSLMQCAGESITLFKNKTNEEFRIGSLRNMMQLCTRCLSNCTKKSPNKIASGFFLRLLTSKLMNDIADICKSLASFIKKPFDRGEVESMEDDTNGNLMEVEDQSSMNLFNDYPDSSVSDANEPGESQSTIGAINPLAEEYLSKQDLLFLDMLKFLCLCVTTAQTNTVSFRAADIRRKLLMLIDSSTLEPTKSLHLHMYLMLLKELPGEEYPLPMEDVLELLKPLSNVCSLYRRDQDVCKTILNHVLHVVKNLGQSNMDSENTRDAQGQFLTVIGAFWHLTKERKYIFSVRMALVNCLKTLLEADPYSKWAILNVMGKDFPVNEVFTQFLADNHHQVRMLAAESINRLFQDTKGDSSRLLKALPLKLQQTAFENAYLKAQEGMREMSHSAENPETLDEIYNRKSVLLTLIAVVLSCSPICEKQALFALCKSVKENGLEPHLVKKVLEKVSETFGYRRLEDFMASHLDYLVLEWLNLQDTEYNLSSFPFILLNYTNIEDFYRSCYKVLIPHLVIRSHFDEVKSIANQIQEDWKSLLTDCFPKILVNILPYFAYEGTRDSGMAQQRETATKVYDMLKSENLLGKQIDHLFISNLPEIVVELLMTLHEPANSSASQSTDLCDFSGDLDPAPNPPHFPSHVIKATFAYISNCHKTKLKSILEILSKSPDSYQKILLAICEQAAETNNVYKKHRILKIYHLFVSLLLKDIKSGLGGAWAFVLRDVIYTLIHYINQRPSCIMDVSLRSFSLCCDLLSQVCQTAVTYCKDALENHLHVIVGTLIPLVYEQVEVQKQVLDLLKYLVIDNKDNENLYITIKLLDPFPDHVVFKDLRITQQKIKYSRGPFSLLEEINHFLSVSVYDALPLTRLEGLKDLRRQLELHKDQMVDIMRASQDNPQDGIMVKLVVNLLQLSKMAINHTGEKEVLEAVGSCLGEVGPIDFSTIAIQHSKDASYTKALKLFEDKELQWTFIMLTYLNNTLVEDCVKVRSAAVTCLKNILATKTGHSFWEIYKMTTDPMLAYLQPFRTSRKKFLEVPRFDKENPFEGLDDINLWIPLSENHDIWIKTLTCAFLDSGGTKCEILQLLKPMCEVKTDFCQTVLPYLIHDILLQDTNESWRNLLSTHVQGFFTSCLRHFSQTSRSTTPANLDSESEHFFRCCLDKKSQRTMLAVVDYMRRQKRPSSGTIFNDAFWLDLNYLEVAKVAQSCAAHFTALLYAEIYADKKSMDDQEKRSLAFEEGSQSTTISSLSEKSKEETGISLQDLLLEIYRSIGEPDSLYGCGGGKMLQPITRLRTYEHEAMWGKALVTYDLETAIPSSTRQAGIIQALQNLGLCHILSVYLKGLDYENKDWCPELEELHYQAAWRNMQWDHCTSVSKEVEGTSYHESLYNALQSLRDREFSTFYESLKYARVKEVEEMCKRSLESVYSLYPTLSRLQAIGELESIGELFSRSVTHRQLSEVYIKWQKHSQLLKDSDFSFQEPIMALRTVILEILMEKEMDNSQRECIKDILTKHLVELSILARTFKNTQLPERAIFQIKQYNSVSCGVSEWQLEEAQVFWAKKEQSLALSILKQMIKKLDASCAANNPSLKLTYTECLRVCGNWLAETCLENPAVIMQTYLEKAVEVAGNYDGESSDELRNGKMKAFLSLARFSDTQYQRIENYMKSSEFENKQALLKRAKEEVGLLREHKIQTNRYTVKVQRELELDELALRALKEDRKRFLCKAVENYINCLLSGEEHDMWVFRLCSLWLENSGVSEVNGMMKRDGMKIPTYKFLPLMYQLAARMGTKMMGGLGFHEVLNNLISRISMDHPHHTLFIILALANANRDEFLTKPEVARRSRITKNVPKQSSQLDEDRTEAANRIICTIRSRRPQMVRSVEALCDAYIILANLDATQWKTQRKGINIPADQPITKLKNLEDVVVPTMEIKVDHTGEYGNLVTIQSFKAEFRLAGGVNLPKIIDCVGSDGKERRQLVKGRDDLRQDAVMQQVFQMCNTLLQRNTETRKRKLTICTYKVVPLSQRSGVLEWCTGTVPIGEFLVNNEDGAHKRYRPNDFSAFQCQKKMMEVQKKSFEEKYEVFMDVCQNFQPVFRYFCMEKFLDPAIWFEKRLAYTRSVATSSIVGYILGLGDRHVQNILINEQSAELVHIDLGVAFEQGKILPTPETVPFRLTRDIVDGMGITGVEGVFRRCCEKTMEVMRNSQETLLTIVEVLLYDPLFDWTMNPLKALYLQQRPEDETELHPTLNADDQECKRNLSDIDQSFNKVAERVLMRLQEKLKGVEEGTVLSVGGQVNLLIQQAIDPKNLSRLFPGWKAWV

CN(C)CCCOc1ccc(-c2ccc3ncc4c(c3c2)n(C2CCOCC2)c(=O)n4C)cn1 [published candidate drug, 8-{6-[3-(Dimethylamino)propoxy]pyridin-3-yl}-3-methyl-1-(tetrahydro-2 H-pyran-4-yl)-1,3-dihydro-2 H-imidazo[4,5-c]quinolin-2-one]
potency on the target protein (in words): sub-nM potency

From publication PMC7567642, “A Fully Integrated Assay Panel for Early Drug Metabolism and Pharmacokinetics Profiling” (Assay and Drug Development Technologies, 2020)
